Values of other authors, collected in PMC4141160, “Peptide Inhibitor of Complement C1, a Novel Suppressor of Classical Pathway Activation: Mechanistic Studies and Clinical Potential” (Frontiers in Immunology, 2014).

Protein sequences, listed by entry. Tags and fused reporters are not part of them. Residues count along the entry.
UniProt P00736, 18-705, chain 1 of 2: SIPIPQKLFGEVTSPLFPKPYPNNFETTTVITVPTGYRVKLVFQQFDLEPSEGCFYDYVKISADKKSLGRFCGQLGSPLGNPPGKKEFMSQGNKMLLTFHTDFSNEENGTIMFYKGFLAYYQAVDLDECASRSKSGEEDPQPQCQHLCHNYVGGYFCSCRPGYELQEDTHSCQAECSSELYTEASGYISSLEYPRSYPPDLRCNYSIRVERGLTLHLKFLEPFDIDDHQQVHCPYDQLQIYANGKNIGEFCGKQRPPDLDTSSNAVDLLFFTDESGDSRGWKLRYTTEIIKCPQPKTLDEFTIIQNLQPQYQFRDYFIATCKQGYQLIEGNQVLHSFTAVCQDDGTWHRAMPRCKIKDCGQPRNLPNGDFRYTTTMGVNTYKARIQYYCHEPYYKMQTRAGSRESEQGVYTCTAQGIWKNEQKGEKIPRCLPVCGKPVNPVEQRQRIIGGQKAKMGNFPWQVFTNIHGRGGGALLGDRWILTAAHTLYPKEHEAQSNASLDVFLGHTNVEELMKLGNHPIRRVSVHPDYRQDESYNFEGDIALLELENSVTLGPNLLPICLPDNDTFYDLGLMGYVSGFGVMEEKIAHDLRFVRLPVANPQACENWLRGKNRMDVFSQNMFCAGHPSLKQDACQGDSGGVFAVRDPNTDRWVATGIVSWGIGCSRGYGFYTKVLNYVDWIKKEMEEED
UniProt P02745, 23-245: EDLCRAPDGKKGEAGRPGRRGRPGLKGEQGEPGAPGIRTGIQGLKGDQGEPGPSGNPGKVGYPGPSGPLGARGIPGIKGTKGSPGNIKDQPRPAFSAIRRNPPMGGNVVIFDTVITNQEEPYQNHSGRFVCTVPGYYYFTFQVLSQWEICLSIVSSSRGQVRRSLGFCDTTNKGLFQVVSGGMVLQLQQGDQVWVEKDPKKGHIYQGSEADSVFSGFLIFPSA

Target: C1s-C1r-C1r-C1s (Homo sapiens) (UniProt P00736)
Experiment: SPR

For C1q (from UniProt P02745), the Kd is listed as 2.72 nM.
